Values of other authors as cited in paper PMC5672155.

Target: Sec61α (Homo sapiens) (UniProt P61619)

## Calmodulin (from UniProt P0DP23)
  Kd: 115 nM
